The source made the active and inactive calls. No cut-off for these calls is given here.
How the values were obtained:
[1] = target: Cyclin-dependent kinase 5/CDK5 activator 1 (Homo sapiens) (UniProt Q00535+Q15078); assay: Inhibition of CDK5/p25 (unknown origin) at 1 uM in presence of ATP relative to control; format: protein-complex assay
[2] = target: Casein kinase I isoform delta (Homo sapiens) (UniProt P48730); assay: Inhibition of CK1 delta (unknown origin) at 1 uM in presence of ATP relative to control
[3] = target: Casein kinase 2 (Homo sapiens) (UniProt P67870+P68400+P19784+Q8NEV1); assay: Inhibition of CK2 (unknown origin) at 1 uM in presence of ATP relative to control; format: protein assay
[4] = target: Dual specificity protein kinase CLK3 (Homo sapiens) (UniProt P49761); assay: Inhibition of CLK3 (unknown origin) at 1 uM in presence of ATP relative to control
[5] = target: Dual specificity protein kinase CLK4 (Homo sapiens, UniProt Q9HAZ1); assay: Inhibition of CLK4 (unknown origin) at 1 uM in presence of ATP relative to control
[6] = target: Dual specificity tyrosine-phosphorylation-regulated kinase 1A (Homo sapiens, UniProt Q13627); assay: Inhibition of DYRK1A (unknown origin) at 1 uM in presence of ATP relative to control
[7] = target: T1, Dual specificity tyrosine-phosphorylation-regulated kinase 2 (Homo sapiens) (UniProt Q92630); assay: Inhibition of DYRK2 (unknown origin) at 1 uM in presence of ATP relative to control
T1 sequence (whole entry): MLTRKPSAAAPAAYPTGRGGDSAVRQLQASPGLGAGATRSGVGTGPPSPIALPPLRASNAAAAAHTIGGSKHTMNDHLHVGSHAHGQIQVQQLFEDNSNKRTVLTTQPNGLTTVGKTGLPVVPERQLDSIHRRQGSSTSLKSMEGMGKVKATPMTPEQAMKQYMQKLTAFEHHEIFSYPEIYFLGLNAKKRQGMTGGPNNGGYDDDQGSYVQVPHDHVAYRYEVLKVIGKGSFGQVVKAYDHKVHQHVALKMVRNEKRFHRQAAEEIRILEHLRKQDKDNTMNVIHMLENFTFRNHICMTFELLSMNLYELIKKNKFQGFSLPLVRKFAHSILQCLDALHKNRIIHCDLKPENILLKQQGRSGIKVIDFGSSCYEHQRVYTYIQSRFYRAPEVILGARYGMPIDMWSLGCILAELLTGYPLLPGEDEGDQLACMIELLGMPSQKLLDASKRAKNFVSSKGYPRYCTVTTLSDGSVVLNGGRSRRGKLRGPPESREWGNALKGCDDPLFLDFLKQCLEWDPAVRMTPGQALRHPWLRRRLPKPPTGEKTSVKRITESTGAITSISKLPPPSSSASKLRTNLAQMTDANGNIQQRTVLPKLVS

Sequences of proteins named here, by UniProt entry; tags and fusion partners are left off. A change or cut given only in a name is not applied to a line headed by its entry.
UniProt Q00535, whole entry, looked up: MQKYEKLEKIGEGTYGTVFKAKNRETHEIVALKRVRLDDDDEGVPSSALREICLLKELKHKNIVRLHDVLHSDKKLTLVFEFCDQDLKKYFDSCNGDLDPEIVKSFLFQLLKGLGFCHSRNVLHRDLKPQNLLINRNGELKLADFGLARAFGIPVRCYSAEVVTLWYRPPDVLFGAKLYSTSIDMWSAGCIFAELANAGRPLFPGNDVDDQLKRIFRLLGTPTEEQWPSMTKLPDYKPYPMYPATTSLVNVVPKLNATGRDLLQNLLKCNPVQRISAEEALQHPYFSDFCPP
UniProt Q15078: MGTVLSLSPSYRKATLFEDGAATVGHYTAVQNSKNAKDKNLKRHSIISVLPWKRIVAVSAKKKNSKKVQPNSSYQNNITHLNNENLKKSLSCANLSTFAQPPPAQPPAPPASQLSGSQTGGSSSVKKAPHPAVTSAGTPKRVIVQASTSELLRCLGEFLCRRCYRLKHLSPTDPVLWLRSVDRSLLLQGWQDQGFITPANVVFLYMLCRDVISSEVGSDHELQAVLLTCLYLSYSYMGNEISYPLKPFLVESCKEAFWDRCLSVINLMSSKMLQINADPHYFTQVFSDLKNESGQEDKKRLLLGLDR
UniProt P48730: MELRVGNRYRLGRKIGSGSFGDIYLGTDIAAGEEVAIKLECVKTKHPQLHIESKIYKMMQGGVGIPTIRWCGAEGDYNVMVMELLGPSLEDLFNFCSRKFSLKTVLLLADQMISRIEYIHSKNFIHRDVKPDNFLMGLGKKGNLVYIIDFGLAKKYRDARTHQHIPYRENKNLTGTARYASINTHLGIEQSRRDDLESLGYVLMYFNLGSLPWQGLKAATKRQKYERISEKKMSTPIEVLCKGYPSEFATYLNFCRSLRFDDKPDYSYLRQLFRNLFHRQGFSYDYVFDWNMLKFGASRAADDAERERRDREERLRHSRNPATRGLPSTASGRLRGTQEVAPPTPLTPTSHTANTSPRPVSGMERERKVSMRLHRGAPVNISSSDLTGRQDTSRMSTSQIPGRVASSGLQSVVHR
UniProt P67870, whole entry, looked up: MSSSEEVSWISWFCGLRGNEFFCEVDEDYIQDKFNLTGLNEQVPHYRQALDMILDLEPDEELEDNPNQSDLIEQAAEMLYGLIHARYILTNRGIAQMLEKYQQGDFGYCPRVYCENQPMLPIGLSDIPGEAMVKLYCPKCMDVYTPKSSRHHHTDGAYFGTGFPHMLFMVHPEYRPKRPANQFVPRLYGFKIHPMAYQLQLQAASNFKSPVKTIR
UniProt P68400, whole entry, looked up: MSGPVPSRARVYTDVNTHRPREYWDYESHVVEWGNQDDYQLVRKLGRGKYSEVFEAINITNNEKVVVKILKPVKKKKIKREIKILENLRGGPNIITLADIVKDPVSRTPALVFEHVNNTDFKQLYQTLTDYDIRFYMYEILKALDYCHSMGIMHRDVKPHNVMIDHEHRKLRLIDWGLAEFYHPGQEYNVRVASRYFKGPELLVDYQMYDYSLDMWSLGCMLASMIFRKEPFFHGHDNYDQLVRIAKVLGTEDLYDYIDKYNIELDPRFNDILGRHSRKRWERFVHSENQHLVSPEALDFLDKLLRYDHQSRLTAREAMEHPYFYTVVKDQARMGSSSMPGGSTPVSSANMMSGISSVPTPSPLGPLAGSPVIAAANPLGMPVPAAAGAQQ
UniProt P19784, whole entry, looked up: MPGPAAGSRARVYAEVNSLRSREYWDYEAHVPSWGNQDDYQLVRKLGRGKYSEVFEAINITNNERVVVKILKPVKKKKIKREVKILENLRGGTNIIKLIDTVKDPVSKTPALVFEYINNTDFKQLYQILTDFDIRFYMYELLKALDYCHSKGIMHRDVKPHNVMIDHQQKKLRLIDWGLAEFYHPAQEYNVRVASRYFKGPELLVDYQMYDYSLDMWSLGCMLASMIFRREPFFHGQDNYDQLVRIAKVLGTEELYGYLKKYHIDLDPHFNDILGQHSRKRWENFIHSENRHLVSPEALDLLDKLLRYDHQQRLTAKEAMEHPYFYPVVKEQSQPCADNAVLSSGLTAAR
UniProt Q8NEV1, whole entry, looked up: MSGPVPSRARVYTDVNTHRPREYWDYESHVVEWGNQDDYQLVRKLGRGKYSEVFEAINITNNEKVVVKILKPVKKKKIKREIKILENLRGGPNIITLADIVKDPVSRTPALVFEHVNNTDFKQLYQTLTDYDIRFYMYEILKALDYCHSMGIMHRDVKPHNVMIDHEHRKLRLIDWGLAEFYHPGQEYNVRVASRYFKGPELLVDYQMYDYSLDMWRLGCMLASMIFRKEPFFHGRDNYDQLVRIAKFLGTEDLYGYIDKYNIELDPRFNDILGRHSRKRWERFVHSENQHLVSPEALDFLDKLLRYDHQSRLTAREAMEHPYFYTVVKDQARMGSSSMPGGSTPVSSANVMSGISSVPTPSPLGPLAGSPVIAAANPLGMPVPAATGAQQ
UniProt P49761: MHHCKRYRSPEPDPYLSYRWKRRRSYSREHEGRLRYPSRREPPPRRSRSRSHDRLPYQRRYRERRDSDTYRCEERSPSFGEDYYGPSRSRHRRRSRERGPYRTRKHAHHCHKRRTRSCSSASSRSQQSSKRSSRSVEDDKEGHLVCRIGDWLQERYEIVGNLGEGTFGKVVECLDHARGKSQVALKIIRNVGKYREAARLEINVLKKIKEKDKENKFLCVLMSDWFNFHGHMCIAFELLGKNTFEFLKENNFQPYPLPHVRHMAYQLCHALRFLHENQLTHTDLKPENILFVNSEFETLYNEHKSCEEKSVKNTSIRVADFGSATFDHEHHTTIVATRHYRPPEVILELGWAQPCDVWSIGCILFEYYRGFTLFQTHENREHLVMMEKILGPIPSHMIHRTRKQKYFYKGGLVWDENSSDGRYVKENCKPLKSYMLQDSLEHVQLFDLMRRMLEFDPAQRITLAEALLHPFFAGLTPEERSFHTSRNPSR
UniProt Q86Z02: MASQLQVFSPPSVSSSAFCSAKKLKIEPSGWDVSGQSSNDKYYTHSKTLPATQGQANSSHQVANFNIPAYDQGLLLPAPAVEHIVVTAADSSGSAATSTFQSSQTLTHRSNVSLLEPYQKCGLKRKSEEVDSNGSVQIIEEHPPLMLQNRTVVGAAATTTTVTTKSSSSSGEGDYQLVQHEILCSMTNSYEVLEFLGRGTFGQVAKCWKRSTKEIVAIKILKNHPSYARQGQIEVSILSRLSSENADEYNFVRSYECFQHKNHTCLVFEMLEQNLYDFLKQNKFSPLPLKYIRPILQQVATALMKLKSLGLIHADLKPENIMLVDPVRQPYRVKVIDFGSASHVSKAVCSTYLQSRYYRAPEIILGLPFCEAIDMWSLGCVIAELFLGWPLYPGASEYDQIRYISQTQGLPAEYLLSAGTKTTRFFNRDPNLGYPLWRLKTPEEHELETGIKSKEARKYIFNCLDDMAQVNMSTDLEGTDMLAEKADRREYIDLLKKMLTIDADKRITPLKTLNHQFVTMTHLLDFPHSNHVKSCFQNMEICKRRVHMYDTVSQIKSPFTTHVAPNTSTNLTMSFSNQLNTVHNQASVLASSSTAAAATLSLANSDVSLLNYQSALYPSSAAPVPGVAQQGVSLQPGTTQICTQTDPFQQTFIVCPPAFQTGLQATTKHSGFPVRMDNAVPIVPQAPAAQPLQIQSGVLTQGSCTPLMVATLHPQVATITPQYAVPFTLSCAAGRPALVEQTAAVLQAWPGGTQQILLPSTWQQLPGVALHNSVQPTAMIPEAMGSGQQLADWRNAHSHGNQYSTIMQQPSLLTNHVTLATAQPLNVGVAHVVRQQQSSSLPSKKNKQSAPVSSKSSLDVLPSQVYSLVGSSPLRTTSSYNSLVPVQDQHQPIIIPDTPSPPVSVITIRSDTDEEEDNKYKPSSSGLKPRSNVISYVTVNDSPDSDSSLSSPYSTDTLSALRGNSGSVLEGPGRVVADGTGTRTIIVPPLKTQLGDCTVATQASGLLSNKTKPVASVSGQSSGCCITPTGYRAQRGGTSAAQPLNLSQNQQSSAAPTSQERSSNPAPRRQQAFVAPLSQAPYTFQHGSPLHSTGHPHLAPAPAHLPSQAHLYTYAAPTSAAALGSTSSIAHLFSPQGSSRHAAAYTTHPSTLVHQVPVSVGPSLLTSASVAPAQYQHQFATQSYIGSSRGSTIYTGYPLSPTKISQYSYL
UniProt Q9H1R3: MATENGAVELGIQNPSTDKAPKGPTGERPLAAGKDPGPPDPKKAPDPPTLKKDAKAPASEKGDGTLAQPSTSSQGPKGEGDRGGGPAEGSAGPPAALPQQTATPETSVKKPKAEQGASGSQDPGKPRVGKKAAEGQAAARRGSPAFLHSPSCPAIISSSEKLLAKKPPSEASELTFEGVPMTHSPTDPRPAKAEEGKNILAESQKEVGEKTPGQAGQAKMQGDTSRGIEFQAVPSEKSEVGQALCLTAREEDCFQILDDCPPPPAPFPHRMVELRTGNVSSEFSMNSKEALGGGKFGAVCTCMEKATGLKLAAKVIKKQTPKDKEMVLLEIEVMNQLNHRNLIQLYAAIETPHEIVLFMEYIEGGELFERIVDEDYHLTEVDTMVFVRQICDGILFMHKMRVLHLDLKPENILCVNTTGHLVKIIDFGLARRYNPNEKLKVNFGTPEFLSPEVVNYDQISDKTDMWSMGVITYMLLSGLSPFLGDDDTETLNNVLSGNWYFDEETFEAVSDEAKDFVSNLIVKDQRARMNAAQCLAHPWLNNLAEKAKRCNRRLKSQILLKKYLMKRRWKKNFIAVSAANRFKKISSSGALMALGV
UniProt P11309, whole entry, looked up: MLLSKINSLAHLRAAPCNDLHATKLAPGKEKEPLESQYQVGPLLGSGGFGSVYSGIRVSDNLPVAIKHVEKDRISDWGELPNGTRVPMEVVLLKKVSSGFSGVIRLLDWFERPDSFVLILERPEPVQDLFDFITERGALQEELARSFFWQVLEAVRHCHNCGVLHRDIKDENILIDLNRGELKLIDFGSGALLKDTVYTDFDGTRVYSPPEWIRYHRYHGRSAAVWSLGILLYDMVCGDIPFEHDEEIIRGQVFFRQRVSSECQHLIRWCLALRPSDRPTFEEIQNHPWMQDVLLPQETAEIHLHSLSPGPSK
UniProt Q96SB4, whole entry: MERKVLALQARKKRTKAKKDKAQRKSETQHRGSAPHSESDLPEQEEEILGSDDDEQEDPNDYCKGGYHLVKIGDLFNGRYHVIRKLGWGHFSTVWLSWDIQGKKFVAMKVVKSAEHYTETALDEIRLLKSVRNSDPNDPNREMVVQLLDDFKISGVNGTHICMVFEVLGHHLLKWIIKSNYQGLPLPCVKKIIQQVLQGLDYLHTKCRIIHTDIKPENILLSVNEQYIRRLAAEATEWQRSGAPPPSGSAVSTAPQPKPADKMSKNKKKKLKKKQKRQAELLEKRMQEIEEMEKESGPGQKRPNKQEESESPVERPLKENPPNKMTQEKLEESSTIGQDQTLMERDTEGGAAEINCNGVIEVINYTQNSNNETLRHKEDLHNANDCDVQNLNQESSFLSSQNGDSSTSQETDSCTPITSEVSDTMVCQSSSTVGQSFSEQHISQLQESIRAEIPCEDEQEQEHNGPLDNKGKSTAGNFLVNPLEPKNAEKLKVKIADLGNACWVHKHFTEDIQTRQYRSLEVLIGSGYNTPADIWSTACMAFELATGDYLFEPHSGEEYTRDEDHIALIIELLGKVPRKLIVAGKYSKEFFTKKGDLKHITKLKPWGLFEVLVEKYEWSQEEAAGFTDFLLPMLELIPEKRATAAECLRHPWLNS
UniProt Q16620, whole entry, looked up: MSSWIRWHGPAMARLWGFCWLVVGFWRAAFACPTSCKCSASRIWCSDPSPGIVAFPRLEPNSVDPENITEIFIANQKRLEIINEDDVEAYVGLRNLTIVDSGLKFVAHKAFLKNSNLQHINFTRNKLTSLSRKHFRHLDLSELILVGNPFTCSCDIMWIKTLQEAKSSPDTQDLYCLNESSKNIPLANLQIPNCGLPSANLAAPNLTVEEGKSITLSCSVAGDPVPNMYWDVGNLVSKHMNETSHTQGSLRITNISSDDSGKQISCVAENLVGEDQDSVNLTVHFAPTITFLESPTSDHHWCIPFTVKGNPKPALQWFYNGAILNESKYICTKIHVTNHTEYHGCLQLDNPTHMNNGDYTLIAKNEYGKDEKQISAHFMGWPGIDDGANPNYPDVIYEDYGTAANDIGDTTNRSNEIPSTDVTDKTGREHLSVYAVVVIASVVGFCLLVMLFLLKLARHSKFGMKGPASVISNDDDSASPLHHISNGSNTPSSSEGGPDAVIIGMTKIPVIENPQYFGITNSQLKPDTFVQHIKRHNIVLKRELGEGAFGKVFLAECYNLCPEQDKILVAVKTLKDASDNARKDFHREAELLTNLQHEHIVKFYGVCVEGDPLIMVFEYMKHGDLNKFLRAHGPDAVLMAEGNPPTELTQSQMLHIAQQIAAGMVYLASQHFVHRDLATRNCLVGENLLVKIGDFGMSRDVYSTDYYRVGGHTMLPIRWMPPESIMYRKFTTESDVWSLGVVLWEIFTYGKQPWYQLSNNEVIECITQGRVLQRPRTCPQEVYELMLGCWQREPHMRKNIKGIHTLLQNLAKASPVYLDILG

[8] = target: T2, Serine/threonine-protein kinase haspin (Homo sapiens) (UniProt Q8TF76); assay: Inhibition of Haspin (unknown origin) at 1 uM in presence of ATP relative to control
T2 sequence (whole entry): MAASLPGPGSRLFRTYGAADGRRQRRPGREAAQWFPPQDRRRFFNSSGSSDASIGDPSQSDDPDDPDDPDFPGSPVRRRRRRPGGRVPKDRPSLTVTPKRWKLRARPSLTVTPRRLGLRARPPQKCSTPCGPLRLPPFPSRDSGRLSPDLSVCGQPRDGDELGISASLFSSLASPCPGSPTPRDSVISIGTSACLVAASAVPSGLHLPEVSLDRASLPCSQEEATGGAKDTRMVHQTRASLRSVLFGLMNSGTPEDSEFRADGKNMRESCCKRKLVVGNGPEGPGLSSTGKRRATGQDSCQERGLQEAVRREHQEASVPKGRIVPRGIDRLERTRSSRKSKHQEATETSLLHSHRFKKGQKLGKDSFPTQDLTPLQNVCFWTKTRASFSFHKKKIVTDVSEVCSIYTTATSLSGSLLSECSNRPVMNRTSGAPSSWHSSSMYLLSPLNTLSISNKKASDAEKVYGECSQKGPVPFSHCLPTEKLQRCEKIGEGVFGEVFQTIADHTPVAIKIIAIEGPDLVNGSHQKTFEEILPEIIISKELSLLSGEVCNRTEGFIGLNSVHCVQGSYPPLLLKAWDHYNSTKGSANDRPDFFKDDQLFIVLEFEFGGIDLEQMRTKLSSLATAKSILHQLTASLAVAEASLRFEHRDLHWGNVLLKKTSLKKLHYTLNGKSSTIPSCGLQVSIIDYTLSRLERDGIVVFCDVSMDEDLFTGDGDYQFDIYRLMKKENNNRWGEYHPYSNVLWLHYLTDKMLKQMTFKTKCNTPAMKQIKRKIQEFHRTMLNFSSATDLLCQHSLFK

[9] = target: Homeodomain-interacting protein kinase 1 (Homo sapiens) (UniProt Q86Z02); assay: Inhibition of HIPK1 (unknown origin) at 1 uM in presence of ATP relative to control
[10] = target: Myosin light chain kinase 2, skeletal/cardiac muscle (Homo sapiens) (UniProt Q9H1R3); assay: Inhibition of MLCK2 (unknown origin) at 1 uM in presence of ATP
[11] = target: Serine/threonine-protein kinase pim-1 (Homo sapiens) (UniProt P11309); assay: Inhibition of PIM1 (unknown origin) at 1 uM in presence of ATP relative to control
[12] = target: SRSF protein kinase 1 (Homo sapiens) (UniProt Q96SB4); assay: Inhibition of SRPK1 (unknown origin) at 1 uM in presence of ATP relative to control
[13] = target: T3, Serine/threonine-protein kinase 17A (Homo sapiens) (UniProt Q9UEE5); assay: Inhibition of STK17A (unknown origin) at 1 uM in presence of ATP relative to control
T3 sequence (whole entry): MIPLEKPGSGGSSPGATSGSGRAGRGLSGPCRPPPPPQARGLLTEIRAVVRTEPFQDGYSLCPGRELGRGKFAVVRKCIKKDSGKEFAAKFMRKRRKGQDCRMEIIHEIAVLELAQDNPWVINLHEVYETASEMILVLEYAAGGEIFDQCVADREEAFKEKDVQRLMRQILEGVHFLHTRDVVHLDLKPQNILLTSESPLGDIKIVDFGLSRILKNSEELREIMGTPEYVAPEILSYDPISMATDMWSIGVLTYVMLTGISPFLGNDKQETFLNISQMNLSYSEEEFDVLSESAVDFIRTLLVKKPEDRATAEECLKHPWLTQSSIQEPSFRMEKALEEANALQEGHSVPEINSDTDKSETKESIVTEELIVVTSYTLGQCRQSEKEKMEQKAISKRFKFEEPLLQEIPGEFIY

[14] = target: BDNF/NT-3 growth factors receptor (Homo sapiens) (UniProt Q16620); assay: Inhibition of TRKB (unknown origin) at 1 uM in presence of ATP relative to control
[15] = target: BDNF/NT-3 growth factors receptor (Homo sapiens) (UniProt Q16620); assay: Inhibition of TRKB (unknown origin) at 1 uM in presence of ATP

| SMILES | inhibition [1] [%] | inhibition [2] [%] | inhibition [3] [%] | inhibition [4] [%] | inhibition [5] [%] | inhibition [6] [%] | inhibition [7] [%] | inhibition [8] [%] | inhibition [9] [%] | inhibition [10] | inhibition [11] [%] | inhibition [12] [%] | inhibition [13] [%] | inhibition [14] [%] | inhibition [15] |
| --- | --- | --- | --- | --- | --- | --- | --- | --- | --- | --- | --- | --- | --- | --- | --- |
| COc1ccc2sc(C(=O)NNc3cc(F)cc(F)c3)cc2c1 | 6 | 5 | 4 | 13 | 99 | 70 | 25 | 61 | 4 | inactive | 8 | 5 | 50 | 1 | – |
| COc1ccc2sc(C(=O)NNc3cc(Cl)cc(Cl)c3)cc2c1 | 4 | 1 | 3 | 30 | 100 | 77 | 10 | 37 | 3 | inactive | 6 | 3 | 42 | – | inactive |

From ChEMBL document CHEMBL5346870, “Discovery of novel 5-methoxybenzothiophene hydrazides as metabolically stable Clk1 inhibitors with high potency and unprecedented Clk1 isoenzyme selectivity” (Eur J Med Chem, 2023)
